Molecular target: T1, Aminopeptidase N (Sus scrofa, UniProt P15145)
T1 sequence (P15145 whole entry): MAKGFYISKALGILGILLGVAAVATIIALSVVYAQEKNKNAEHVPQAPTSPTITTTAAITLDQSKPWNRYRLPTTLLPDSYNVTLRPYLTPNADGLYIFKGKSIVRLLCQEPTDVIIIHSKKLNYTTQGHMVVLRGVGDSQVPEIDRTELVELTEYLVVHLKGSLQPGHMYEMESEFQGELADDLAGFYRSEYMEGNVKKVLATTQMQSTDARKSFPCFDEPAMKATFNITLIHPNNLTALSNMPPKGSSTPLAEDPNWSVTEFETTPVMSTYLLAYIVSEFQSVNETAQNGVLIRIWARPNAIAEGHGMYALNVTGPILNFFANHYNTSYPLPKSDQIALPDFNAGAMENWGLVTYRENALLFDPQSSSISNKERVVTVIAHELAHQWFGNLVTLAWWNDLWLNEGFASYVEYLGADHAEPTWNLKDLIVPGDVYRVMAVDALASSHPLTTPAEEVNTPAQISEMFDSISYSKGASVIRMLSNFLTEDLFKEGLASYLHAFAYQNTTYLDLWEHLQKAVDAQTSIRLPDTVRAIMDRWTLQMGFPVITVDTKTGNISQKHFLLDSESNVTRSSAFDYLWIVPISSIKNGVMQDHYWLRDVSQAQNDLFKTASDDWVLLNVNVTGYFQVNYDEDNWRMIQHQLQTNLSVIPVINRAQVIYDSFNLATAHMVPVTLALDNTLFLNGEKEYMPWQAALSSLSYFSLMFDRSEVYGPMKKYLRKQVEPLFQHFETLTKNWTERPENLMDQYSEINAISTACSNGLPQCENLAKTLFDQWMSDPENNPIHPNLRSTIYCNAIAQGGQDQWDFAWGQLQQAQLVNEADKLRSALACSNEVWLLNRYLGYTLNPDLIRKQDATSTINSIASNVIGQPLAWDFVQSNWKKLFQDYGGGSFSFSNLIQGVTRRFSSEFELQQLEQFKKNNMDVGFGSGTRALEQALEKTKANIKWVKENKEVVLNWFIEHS

Ki [µM] | SMILES
> 5 | CC[C@@H](C)[C@H](NC(=O)[C@H](S)[C@H](N)CCS(=O)(=O)O)C(=O)N[C@@H](CS(=O)(=O)O)C(=O)O
4.6 | N[C@H](CCS(=O)(=O)O)[C@@H](S)C(=O)N[C@@H](Cc1ccc(O)cc1)C(=O)N[C@@H](CCS(=O)(=O)O)C(=O)O
7.5 | N[C@H](CCS(=O)(=O)O)[C@H](S)C(=O)N[C@@H](Cc1ccc(O)cc1)C(=O)N[C@@H](CCS(=O)(=O)O)C(=O)O
> 5 | CC[C@@H](C)[C@H](NC(=O)[C@@H](S)[C@H](N)CCS(=O)(=O)O)C(=O)N[C@@H](CS(=O)(=O)O)C(=O)O

From ChEMBL document CHEMBL1132539 (J Med Chem, 1999)
